The values below come from ChEMBL document CHEMBL2203183, “Synthesis of N-phenyl-N-(3-(piperidin-1-yl)propyl)benzofuran-2-carboxamides as new selective ligands for sigma receptors” (Bioorg Med Chem, 2012).

Amino acid sequences for entries named in this document (tags omitted).
UniProt P35462, whole entry: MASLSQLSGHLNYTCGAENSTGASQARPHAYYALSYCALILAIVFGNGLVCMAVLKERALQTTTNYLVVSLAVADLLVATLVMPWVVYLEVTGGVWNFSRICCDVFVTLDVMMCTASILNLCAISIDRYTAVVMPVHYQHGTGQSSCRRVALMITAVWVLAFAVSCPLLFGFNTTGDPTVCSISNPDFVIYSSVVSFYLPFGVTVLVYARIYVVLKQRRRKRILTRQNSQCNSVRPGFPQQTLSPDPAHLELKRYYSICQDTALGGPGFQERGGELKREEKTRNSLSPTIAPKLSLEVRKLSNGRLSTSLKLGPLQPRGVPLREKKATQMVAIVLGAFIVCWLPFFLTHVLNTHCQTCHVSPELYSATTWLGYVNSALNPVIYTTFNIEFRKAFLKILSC
UniProt Q9R0C9, whole entry: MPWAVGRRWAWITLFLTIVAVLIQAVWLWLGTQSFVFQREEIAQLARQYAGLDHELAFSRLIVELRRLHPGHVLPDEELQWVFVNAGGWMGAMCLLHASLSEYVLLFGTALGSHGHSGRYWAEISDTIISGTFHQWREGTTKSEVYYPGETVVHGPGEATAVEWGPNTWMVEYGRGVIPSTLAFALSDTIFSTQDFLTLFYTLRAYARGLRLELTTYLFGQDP
UniProt P08913, whole entry: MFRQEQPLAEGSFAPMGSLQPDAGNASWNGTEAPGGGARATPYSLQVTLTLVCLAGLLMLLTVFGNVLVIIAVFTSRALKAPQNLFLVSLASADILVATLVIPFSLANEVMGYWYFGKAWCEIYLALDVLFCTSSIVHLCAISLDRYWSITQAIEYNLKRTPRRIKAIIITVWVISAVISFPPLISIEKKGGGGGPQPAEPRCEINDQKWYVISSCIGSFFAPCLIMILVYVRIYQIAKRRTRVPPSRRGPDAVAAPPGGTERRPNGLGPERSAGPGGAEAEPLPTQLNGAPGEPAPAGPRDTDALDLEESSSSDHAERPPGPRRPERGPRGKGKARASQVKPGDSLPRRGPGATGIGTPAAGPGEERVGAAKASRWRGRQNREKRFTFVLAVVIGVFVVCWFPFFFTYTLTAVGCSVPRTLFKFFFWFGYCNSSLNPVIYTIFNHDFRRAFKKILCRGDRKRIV

Assay [1] deals with D(3) dopamine receptor (Homo sapiens) (UniProt P35462). Kind of assay: Displacement of [3H]N-methylspiperone from dopamine D3 receptor at 10 uM after 1.5 hrs by scintillation counting analysis. (In general: Loss of bound radioactivity is the signal in a displacement assay; it reports binding, not function.)
Assay [2] has as its target Sigma non-opioid intracellular receptor 1 (Rattus norvegicus) (UniProt Q9R0C9). Kind of assay: Displacement of [3H](+)-pentazocine from sigma 1 receptor in rat brain membrane at 10 uM after 2.5 hrs by scintillation counting. The assay is classed as cell membranes.
The next assay concerns PC-12. Kind of assay: Selectivity ratio of Ki for sigma 2 receptor in rat PC12 cell membrane to Ki for sigma 1 receptor in rat brain membrane. The assay is classed as cell-based. The procedure, abridged: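 Sigma-1: rat brain membranes, 3 nM [3H]pentazocine, 37 °C, 2.5 h. Sigma-2: PC12 homogenate, 1 nM [3H]DTG, room temperature, 2 h. […] Filtration and scintillation counting; IC50 from logistic fit converted to Ki by Cheng-Prusoff. Ratio is sigma-2 Ki over sigma-1 Ki.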

The target of assay [3] is Alpha-2A adrenergic receptor (Homo sapiens) (UniProt P08913). In words: Displacement of [3H]clonidine from alpha2A adrenergic receptor at 10 uM after 40 mins by scintillation counting analysis. The procedure, abridged:
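NIMH-PDSP primary screen using membranes from transiently or stably transfected cell lines (e.g., HEK293, COS, CHO, NIH3T3). Compound at 10 μM final. Reference compounds: chlorpromazine (5-HT2A), methysergide (5-HT2B), LY278584 (5-HT3), oxymetazoline (α2A), prazosin (α2C), atropine (M4). Mean % inhibition of radioligand specific binding, N = 4.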

By inhibition is commonly meant the drop in the measured response relative to a control, in per cent.

For the compound `Cc1c(C(=O)N(CCCN2CCCCC2)c2ccccc2)oc2ccccc12`, the inhibition in assay [1] is 60.6%; in assay [2] it was 101%. Further, in the assay on PC-12, the Ratio Ki is 2.

On to `COc1cc2oc(C(=O)N(CCCN3CCCCC3)c3ccccc3)c(C)c2cc1OC`, for which the inhibition in assay [3] was 55.2%.
